miR-21 reporter = miR-21 reporter, rising signal. HeLa miR-21 FLuc reporter, luciferase, 48 h. Potency, µM (titrated, usually from 38.3 µM). 340,000 tested, under 10 active. AID 2288; active = well fitted rising curve with a large enough effect; inconclusive = small, poorly fitted or top-dose-only effect; inactive = no such curve, though single readings can be large or run the other way;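 also: miR-21 action dims this reporter so a rising signal means less miR-21 action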
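Luminescence from a firefly luciferase reporter carrying a miR-21 binding site downstream, stably expressed under a CMV promoter in HeLa cells that make miR-21 endogenously, reports miRNA modulation after 48 h compound exposure up to approximately 40uM final.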
G9a block = blocks human histone lysine methyltransferase G9a; Q96KQ7; G9a H3K9 monomethylation, AlphaScreen, 2 h; Potency, µM (doses to about 102 µM), hits mostly inhibitors; actives 8.8% (n = 350,000); AID 504332; also: nearly all actives have a fitted effect of over 75% in size
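Readings reflect AlphaScreen signal from monomethyl-H3K9 antibody detection. HMT at 20 nM; substrate b-H3K9 500 nM; cofactor SAM 20 uM; 2 h RT reaction; compounds tested as titrations in qHTS with 15 min preincubation.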
ALDH1A1 inh = blocks purified human ALDH1A1 activity. Purified ALDH1A1, NADH fluorescence, propionaldehyde substrate. actives 7.3% (n = 220,000). P00352. AID 1030. Potency, µM (top dose mostly 75.3 µM), hits mostly inhibitors; active = well fitted inhibition curve with a large enough effect, not every such curve was filed as active; inconclusive = small, poorly fitted or top-dose-only effect, or another doubt; inactive = no such curve, though single readings can be large or run the other way
KDM4E inh = inhibitors of human JMJD2E histone demethylase | B2RXH2 | JMJD2E catalytic domain, FDH-coupled NADH fluorescence (FDH is formaldehyde dehydrogenase) | Potency, µM (highest dose often 57.1 µM), actives largely listed as inhibitors | actives 1.6% (n = 230,000) | AID 2147; active = well fitted inhibition curve with a large enough effect, not every such curve was filed as active; inconclusive = small, poorly fitted or top-dose-only effect, or another doubt; inactive = no such curve, though single readings can be large or run the other way; also: nearly all actives have a fitted effect of over 50% in size
Sfp inh = blocks B. subtilis Sfp PPTase activity. Biochemical Sfp PPTase activity, qHTS. Potency, µM, most hits filed as inhibitors. actives 3.5% (n = 310,000);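 also: the enzyme is Sfp with the accession as filed and its product quenches rhodamine fluorescence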
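Step 1, compound plus 15 nM Sfp-PPTase, 15 min, room temperature. Step 2, add rhodamine-CoA (5 uM) and BHQ-2-YbbR (12.5 uM). Step 3, read 525/598 nm fluorescence at 0 and 30 min.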
LMNA splice mod = modulators of lamin A splicing. HeLa LMNA splicing GFP/RFP minigene ratio, 48 h. Potency, µM (top dose mostly 46.1 µM), usual class: inhibitors. actives 0.01% (n = 200,000); active = well fitted inhibition curve with a large enough effect in the signal ratio, with a control signal flat, not every such curve was filed as active; inconclusive = small, poorly fitted or top-dose-only effect, or effect the other way, or a change in a side signal; the % refers to the signal ratio
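S3 HeLa cells stably expressing lamin A-EGFP splicing minigene plus DsRed2, 600 cells/well, 48 h compound exposure at 37C. Laser-scanning cytometry; analysed as GFP (500-530 nm)/RFP (575-640 nm) total intensity ratio; 0.5% DMSO vehicle.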
Numbers stand for hits; . = inactive; ? = inconclusive; / = no result given; [ ] = dose if it differs, or a comment. Only some compounds are listed: those with a hit (about 13% of all), similar ones and a draw of the others. Unless noted, calls follow the shape of the dose curve; as a rule, active = well fitted curve in the direction sought with a large enough effect; inconclusive = small, poorly fitted or top-dose-only effect, or another doubt; inactive = no such curve, though single readings can be large; an effect the other way counts as inactive or inconclusive.

SMILES	miR-21 reporter	G9a block	ALDH1A1 inh	KDM4E inh	Sfp inh	LMNA splice mod
CC1CC(C)CN(CCCNC(=O)CN2C(=O)COc3ccc(S(=O)(=O)N4CCOCC4)cc32)C1 (stereo unspecified)	.	.	/	/	.	/
N#Cc1c(NC(=S)NC(=O)c2ccccc2)sc2c1CCN(CCc1ccccc1)C2	.	40µM	18µM	?	56µM	.
N#Cc1c(N)sc2c1CCN(CCc1ccccc1)C2	.	.	?	?	.	.
CC(C)CC(=O)NC(NC(=S)Nc1sc2c(c1C#N)CCCC2)C(Cl)(Cl)Cl (stereo unspecified)	.	?	3.5µM	.	.	?
CC1CCc2c(sc(NC(=S)NC(=O)c3ccccc3)c2C#N)C1 (stereo unspecified)	.	?	/	.	?	/
CC1(C)Cc2c(sc(NC(=S)NC(=O)c3ccccc3)c2C(=O)O)CO1	.	40µM	22µM	.	.	.
Cc1ccccc1C(=O)NC(=S)Nc1sc2c(c1C#N)CCC(C)C2 (stereo unspecified)	.	/	10µM	.	.	.
O=C(c1ccc(=O)[nH]n1)N1CCN(S(=O)(=O)c2ccc(C(F)(F)F)cc2)CC1	/	.[12.7 µM]	/	/	/	/
CC(C)c1ccc(NC(=O)N2c3ccccc3Sc3ccccc32)cc1	.	.	/	/	/	/
N#Cc1c(NC(=S)NC(=O)c2ccccc2)sc2c1CCCC2	.	8.9µM	3.2µM	.	?	.
N#Cc1c(NC(=S)NC(=O)C2CCCC2)sc2c1CCCCC2	.	35µM	10µM	.	?	?
CC1CCc2c(sc(NC(=O)COc3ccccc3C(C)(C)C)c2C#N)C1 (stereo unspecified)	.	10µM	/	/	/	/
Cc1ccccc1NC(=O)CCCN1C(=O)C2CC=CCC2C1=O (stereo unspecified)	.	.	/	/	.	/
CC(=O)N1CCC2(CC1)C/C(=N\NC(=S)Nc1ccccc1C)c1cc(O)ccc1O2	.	32µM	?	?	.	?
CC(=O)N1CCC2(CC1)C/C(=N\NC(=S)Nc1ccccc1F)c1cc(O)ccc1O2	.	16µM	?	?	.	.
CCCn1c(=O)c2sccc2n2c(CCCC(=O)Nc3ccccc3OCC)nnc12	.	.	/	/	/	/
O=C(CSc1ccc([N+](=O)[O-])cn1)Nc1ccccc1N1CCOCC1	.	40µM	/	/	.	/
O=C(CSc1ccc([N+](=O)[O-])cn1)Nc1nccs1	.	.	/	/	.	/
Cc1csc(NC(=O)CSc2ccc([N+](=O)[O-])cn2)n1	.	50µM	/	/	.	/
CCOC(=O)c1cccc(NC(=O)C2CCCO2)c1 (stereo unspecified)	.	.	.	.	.	.
CCOC(=O)c1c(NC(=O)C2CC2)sc2c1CC(C)(C)OC2	.	35µM	/	.	.	/
Cc1sc(NC(=O)C2=COCCO2)c(C(N)=O)c1C	/	.[0.501 µM]	/	/	/	/
Cc1sc(NC(=O)C2CCCO2)c(C(N)=O)c1C (stereo unspecified)	.	7.9µM	11µM	?	.	.
CCOC(=O)c1c(NC(=O)C2CCCO2)sc(C)c1C (stereo unspecified)	.	.	14µM	?	.	/
CCOC(=O)c1c(NC(=O)C2CCCO2)sc(C(=O)OC(C)(C)C)c1C (stereo unspecified)	.	3.5µM	14µM	.	45µM	.
SMILES	miR-21 reporter	G9a block	ALDH1A1 inh	KDM4E inh	Sfp inh	LMNA splice mod
COc1ccc(CNC(=O)Cn2c(=O)n(CCC(=O)N3CCCCC3)c(=O)c3sccc32)cc1	.	.	/	/	.	/
COC(=O)[C@@H]1Cc2c([nH]c3ccccc23)C(C)(C)N1C(=O)CCl	?	.	/	/	.	/
CCN(C(=O)Cn1c(=O)n(CCCS(=O)(=O)C2CCCCC2)c(=O)c2ccccc21)c1cccc(C)c1	.	.	/	/	/	/
N=C(N)SCc1ccc(Cl)cc1Cl (tested in a mixture with another compound)	/	/	.[13.5 µM]	/	/	/
CCOC(=O)c1c(NC(=O)C2CCCCC2C(=O)O)sc2c1CCCCC2 (stereo unspecified)	.	.	.	.	.	/
Cc1c(C(=O)OC(C)C)sc(NC(=O)C2CCCO2)c1C(=O)OC(C)C (stereo unspecified)	.	.	.	.	.	.
CCCc1cc(C(N)=O)c(NC(=O)C2CCCO2)s1 (stereo unspecified)	.	?	14µM	.	.	.
CCOC(=O)c1sc(NC(=O)C2CCCO2)c(C(=O)OCC)c1C (stereo unspecified)	.	.[12.7 µM]	8.9µM	?	.	.
CCOC(=O)c1c(NC(=O)C2CCCO2)sc2c1CCC2 (stereo unspecified)	.	.	22µM	.	.	?
CCCc1cc(C(N)=O)c(NC(=O)c2ccco2)s1	.	?	?	?	?	.
CCCC[C@H](NC(=O)[C@H](CO)NC(=O)[C@H](Cc1ccc(O)cc1)NC(=O)[C@H](CO)NC(C)=O)C(=O)N[C@@H](CCC(=O)O)C(=O)N[C@@H](Cc1cnc[nH]1)C(=O)N[C@H](Cc1ccccc1)C(=O)N[C@@H](CCCNC(=N)N)C(=O)N[C@@H](Cc1c[nH]c2ccccc12)C(=O)NCC(=O)N[C@@H](CCCCN)C(=O)N1CCC[C@H]1C(=O)N[C@H](C(N)=O)C(C)C	/	/	/	/	.	/
CC(C)C(NC(=O)C(NC(=O)C1OC2OC(C)(C)OC2C2OC(C)(C)OC12)C(C)C)C(=O)O (stereo unspecified)	.	/	.	.	.	?
CCOC(=O)c1ccccc1NC(=O)COC(=O)c1ccccc1C(=O)N(C)c1ccccc1	/	.[2.33 µM]	/	/	/	/
O=C(O)CCc1ccc(-c2ccc(Br)cc2)n1-c1ccc(O)cc1	.	45µM	/	/	.	/
CC(=O)c1ccc(-n2c(CCC(=O)O)ccc2-c2ccc(Br)cc2)cc1	.	40µM	/	/	.	/
CC(=O)c1ccc(-n2c(CCC(=O)O)ccc2-c2ccc(C)cc2)cc1	.	.[2.33 µM]	/	/	.	/
Cc1cc(Cn2nc(-c3ccccc3)cc2C(=O)NCC2CC2)on1	/	.[2.33 µM]	/	/	/	/
Cc1cc(/C=C2/NC(=O)N(Cc3ccccc3F)C2=O)c(C)n1C	.	?	1.1µM	?	.	.
COc1cc(/C=C2/NC(=O)N(Cc3ccccc3F)C2=O)cc(OC)c1OC	.	.	2.5µM	.	.	/
Cc1ccc(/C=C2/NC(=O)N(Cc3ccccc3F)C2=O)s1	.	.	?	?	.	/
COc1ccc(/C=C2/NC(=O)N(Cc3ccccc3F)C2=O)cc1OC	.	.	?	?	.	/
CCOc1cc([N+](=O)[O-])cc(/C=C2/NC(=O)N(Cc3ccccc3F)C2=O)c1O	.	22µM	2.2µM	.	.	/
Cc1cc(/C=C2/NC(=O)N(Cc3ccccc3F)C2=O)c(C)n1-c1ccccn1	.	?	8.9µM	?	.	?
O=C(O)c1ccc(CNC(=O)C23CC4CC(CC(C4)C2)C3)cc1	.	.	/	/	.	/
Cc1c(C(=O)N2CCCC2)c(S(=O)(=O)Nc2ccccc2)c(C)n1C	.	.	/	/	.	/

From PubChem
